Five molecules from patent US20250059184A1 (priority 2021, published 2025) can be followed below.

The chains behind the UniProt entries cited, without tags or fusion partners. Residues count along the entry.
UniProt P28335, 33-458 I156V/N158S/I160V limits assumed: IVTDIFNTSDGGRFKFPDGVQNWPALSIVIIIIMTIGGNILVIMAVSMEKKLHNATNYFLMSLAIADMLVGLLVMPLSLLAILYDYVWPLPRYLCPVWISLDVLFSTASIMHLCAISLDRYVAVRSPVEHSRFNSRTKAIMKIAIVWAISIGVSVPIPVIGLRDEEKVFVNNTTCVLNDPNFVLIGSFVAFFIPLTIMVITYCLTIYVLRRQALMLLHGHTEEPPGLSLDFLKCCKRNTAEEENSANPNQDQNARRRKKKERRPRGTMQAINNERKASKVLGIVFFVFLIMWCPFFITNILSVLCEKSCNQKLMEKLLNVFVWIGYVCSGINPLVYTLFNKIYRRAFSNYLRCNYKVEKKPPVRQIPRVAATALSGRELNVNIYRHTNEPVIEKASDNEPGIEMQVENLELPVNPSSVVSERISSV

In assay [1] the target is human recombinant 5-HT2Cedited receptor (Homo sapiens, UniProt P28335, I156V/I160V/N158S). Briefly: Serotonin 5-HT2C in vitro cellular IPOne agonism assay (HTRF). As to conditions: read-out: 5-HT2C IPOne Agonism Activity; CHO-K1 cells, agonist mode. A general note: TR-FRET usually uses a lanthanide donor and a delayed reading to cut background.
Assay [2] has as its target 5-HT2Cedited (accession number AAF35842.1) (Homo sapiens, UniProt P28335, I156V/I160V/N158S). Briefly: Serotonin 5-HT2C in vitro radioligand binding competition assay ([3H]-DOI). As to conditions: read-out: 5-HT2C Radioligand Binding Activity; [3H]-DOI radiotracer, membrane extracts.

In the case of `NCCc1ncc2ccccn12` [Compound 1, 2-(imidazo[1,5-a]pyridin-3-yl)ethan-1-amine], the EC50 in assay [1] fell in the range of 1000 to 10000 nM. The IC50 in assay [2] fell in the range of 101 to 1000 nM.

For the molecule `Cc1cccc2cnc(CC(C)N)n12` (stereo not shown) [Compound 7, 1-(5-methylimidazo[1,5-a]pyridin-3-yl)propan-2-amine], the EC50 in assay [1] is 101 to 1000 nM. The IC50 in assay [2] was 101 to 1000 nM.

For the molecule `Cc1cccc2cnc(CC(C)N(C)C)n12` (stereo not shown) [Compound 20, N,N-dimethyl-1-(5-methylimidazo [1,5-a]pyridin-3-yl)propan-2-amine], the EC50 in assay [1] was more than 10000 nM. The IC50 in assay [2] lay in the range of 1000 to 10000 nM.

As for `NCCc1cnn2ccccc12` [Compound 47, 2-(Pyrazolo[1,5-a]pyridin-3-yl)ethan-1-amine], in assay [1], the EC50 lay within 1000 to 10000 nM. In addition, the IC50 in assay [2] was 1000 to 10000 nM.

For the molecule `Cc1nc(CC(C)N(C)C)n2ccccc12` (stereo not shown) [Compound 24, N,N-dimethyl-1-(1-methylimidazo [1,5-a]pyridin-3-yl)propan-2-amine], the EC50 in assay [1] is 1000 to 10000 nM. Also, in assay [2], the IC50 is 101 to 1000 nM.
